Several values for one entry are separate records, joined by “and”; a condition that tells them apart may be missing. Identical values can stand only once. The entries are a selection whose mix differs from that of the whole data set. Inconclusive results are not listed. Activity calls are given as the source filed them. Calls come from the whole dose curve; as a rule, active = well fitted curve in the direction sought with a large enough effect in the signal ratio in the repeat runs (not every such curve was filed as active); inconclusive = weak or mixed curves, or a change in a side signal; inactive = no such curve, though single readings can be large or run the other way; the % refers to the signal ratio.
Experiment: qHTS assay to identify small molecule agonists of the NFkB signaling pathway (AID 1159509)
Conditions: NFkB-bla ME-180 cells, beta-lactamase FRET ratio, 5 h; at 61 µM (top of the series)
From the text: National Center for Advancing Translational Sciences [NCATS]
NIH Chemical Genomics Center [NCGC]
U.S. Environmental Protection Agency [EPA]
National Institutes of Environmental Health Sciences [NIEHS]
National Toxicology Program [NTP]
U.S. Food and Drug Administration [FDA]
Transcription factors and their stimulated target gene expression play pivotal roles across many cellular processes including responses to environmental stimuli. Proper regulation of associated pathways is critical to maintain cell health and function. Constitutive activation of transcription factor pathways has been implicated in tumors as it may block cellular functions such as apoptosis and lead to invasion and metastasis. One important transcription factor that stimulates gene expression in response to cytokines, UV radiation, and other stimuli is nuclear factor-kappa B (NFkB). To measure activation of the NFkB pathway, the CellSensor NFkB-bla ME-180 cell line (Life Technologies, Carlsbad, CA) that stably expresses beta-lactamase reporter gene under the regulation of a NF-kB response element was used. This assay allows measurement of the NFkB pathway activity induced by compounds in a ME-180 cell line. This system quantitates NF-kB activity using a FRET-based assay system where beta-lactamase expression disrupts FRET, allowing for fluorescent measurement of activity. This cell line has been used to screen the Tox21 10K compound library and to identify compounds that induce the NFkB pathway activity.
Tox21 Assay Protocol Summary:
NFkB-bla ME-180 cells were dispensed at 2,000 cells/6 uL of assay medium per well into black wall/clear-bottom 1536-well plates using a Multidrop Combi (ThermoFisher Scientific, Waltham, MA) dispenser. After the assay plates were incubated at 37 C and 5% CO2 for an overnight, 23 nL of compounds dissolved in DMSO, positive controls or DMSO only was transferred to the assay plate by a Pintool station (Kalypsys, San Diego, CA). The assay plates were incubated at 37 C and 5% CO2 for 5 hr. One uL of LiveBLAzer B/G FRET substrate (Life Technologies) was added using a Flying Reagent Dispenser (Aurora Discovery, San Diego, CA) and the plates were incubated at room temperature for 1.5 hr. Fluorescence intensity (405 nm excitation, 460 nm and 530 nm emissions) was measured using an Envision plate reader (PerkinElmer, Shelton, CT).
% is set by controls: 0 for no effect and ±100 for the full control effect.

Structure (SMILES)	activation
OCCSCCO	inactive: -0.55%
CC(C)OP(C)(=O)OC(C)C	inactive: -0.166% and inactive: -0.489%
COP(C)(=O)OC	inactive: -0.173%
Cc1ccc([N+](=O)[O-])cc1[N+](=O)[O-]	inactive: -1.15% and inactive: -0.524%
CP(=O)(O)OCCC[Si](O)(O)O	inactive: 0.0286%
Cc1c([N+](=O)[O-])cccc1[N+](=O)[O-]	inactive: -0.004% and inactive: -0.487%
CCOP(=O)(CC)OCC	inactive: 0.143%
COc1ccc([N+](=O)[O-])cc1[N+](=O)[O-]	inactive: -0.334%
C/C1=C2N=C(/C=C3N=C(/C(C)=C4\[N-][C@@](C)([C@@H]5N=C1[C@](C)(CCC(=O)NC[C@@H](C)OP(=O)([O-])O[C@H]1[C@@H](O)[C@@H](n6cnc7cc(C)c(C)cc76)O[C@@H]1CO)[C@H]5CC(N)=O)[C@@](C)(CC(N)=O)[C@@H]4CCC(N)=O)[C@@](C)(CC(N)=O)[C@@H]\3CCC(N)=O)C(C)(C)[C@@H]/2CCC(N)=O.[C-]#N.[Co+3]	inactive: -0.0846%
CC(C)N(CCO)C(C)C	inactive: 0.379%
O=[N+]([O-])OCC(CO[N+](=O)[O-])(CO[N+](=O)[O-])CO[N+](=O)[O-]	inactive: -0.143%

Same assay, conditions: NFkB-bla ME-180 cells, beta-lactamase FRET ratio, 5 h; at 78.8 µM (top of the series)

Structure (SMILES)	activation
OCCSCCO	inactive: -0.672%
Nc1cc([N+](=O)[O-])cc([N+](=O)[O-])c1O	inactive: -0.243%
COP(C)(=O)OC	inactive: -0.114%
N=C(N)N[N+](=O)[O-]	inactive: 0%

— PubChem BioAssay (Tox21)
